System: MDCK-pHaMDR cell monolayer
Assay: bidirectional transport across the MDCK-pHaMDR cell monolayer (in vitro BBB model)
Conditions: for primary transport mechanism: time-dependency (30–180 min, 100 µM) and concentration-dependency (25–100 µM, 90 min) experiments

Row | permeability (in words) (classed by Papp against caffeine and atenolol) | primary transport mechanism | Structure (SMILES)
1 | moderate | passive diffusion | C/C=C/c1cc(OC)c2c(c1)[C@@H](C)[C@H](c1ccc(O)c(OC)c1)O2 (racemic) [Compound 1, Dehydrodiisoeugenol]
2 | – | passive diffusion | COc1cc([C@H]2O[C@@H](c3ccc(O)c(OC)c3)[C@@H](C)[C@@H]2C)ccc1O [Compound 8, verrucosin]

Reference: paper PMC6274353, “The Blood-Brain Barrier Permeability of Lignans and Malabaricones from the Seeds of Myristica fragrans in the MDCK-pHaMDR Cell Monolayer Model” (Molecules, 2016)
